2 molecules from ChEMBL document CHEMBL1138832, “N2-substituted O6-cyclohexylmethylguanine derivatives: potent inhibitors of cyclin-dependent kinases 1 and 2” (J Med Chem, 2004) can be followed below.

The IC50 is the concentration needed to halve the response being measured. The low end stands for greater potency, the high end for weaker potency.

This experiment has as its target Cyclin-dependent kinase 2/cyclin A (Homo sapiens, UniProt P24941). Put plainly: Inhibition of cyclin-dependent kinase 2-cyclin A3 (CDK2). Format: protein-complex assay.

As to `CS(=O)(=O)c1ccc(Nc2nc(OCC3CCCCC3)c3[nH]cnc3n2)cc1`, 63 µM corresponded to half-maximal inhibition (IC50).

`C[S+]([O-])c1ccc(Nc2nc(OCC3CCCCC3)c3[nH]cnc3n2)cc1` (configuration not stated): half-maximal inhibition (IC50) was put at 0.1 µM.
